The entries are a selection whose mix differs from that of the whole data set. Some salts or complexes appear as unconnected parts, following the source record. The source made the active and inactive calls. Calls follow the shape of the dose curve; as a rule, active = well fitted curve in the direction sought with a large enough effect; inconclusive = small, poorly fitted or top-dose-only effect, or effect the other way, or another doubt; inactive = no such curve, though single readings can be large or run the other way.

Protein sequences, listed by entry. Tags and fused reporters are not part of them.
UniProt P06280, whole entry: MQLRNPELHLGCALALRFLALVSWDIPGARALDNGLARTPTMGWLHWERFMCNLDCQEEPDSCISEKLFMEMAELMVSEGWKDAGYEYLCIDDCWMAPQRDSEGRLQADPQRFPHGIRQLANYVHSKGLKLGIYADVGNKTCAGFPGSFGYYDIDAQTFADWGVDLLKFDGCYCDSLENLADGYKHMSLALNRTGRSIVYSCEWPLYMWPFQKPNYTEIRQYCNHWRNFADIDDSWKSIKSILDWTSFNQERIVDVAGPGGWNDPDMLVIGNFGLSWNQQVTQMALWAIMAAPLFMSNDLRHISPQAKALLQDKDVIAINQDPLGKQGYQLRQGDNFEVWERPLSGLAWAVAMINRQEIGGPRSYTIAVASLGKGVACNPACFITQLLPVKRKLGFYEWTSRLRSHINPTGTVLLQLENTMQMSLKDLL

This experiment deals with Alpha-galactosidase A (Homo sapiens) (UniProt P06280). The experiment in a line: qHTS Assay for Inhibitors of Human alpha-Galactosidase at pH 4.5.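 Also: 0% = full activity with enzyme and -100% = basal without enzyme.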 As to conditions: purified enzyme, 4-MU-alpha-Gal fluorescence; at 105 µM (top of the series). An excerpt:
NIH Chemical Genomics Center [NCGC]
NIH Molecular Libraries Probe Production centers Network [MLPCN]
Assay Submitter (PI): Wei Zheng
Alpha-galactosidase is a homodimeric glycoprotein that hydrolyzes the terminal alpha-galactosyl moieties from glycolipids and glycoproteins. Deficiency of this enzyme results in Fabry Disease with progressive accumulation of globotriaosylceramide and other glycosphingolipids in vascular endothelial cells that causes renal failure, myocardial infarction and stroke, and premature death in patients. It has been reported that the improper folding and trafficking of alpha-galactosidase resulting from the genetic mutations may account for a significant numbers of Fabry patients. […] We optimized this alpha-galactosidase assay in 1536-well plate format for identifying the novel small molecule inhibitors with the structures other than the sugar analogs in order to develop the new pharmacological chaperones. Although this assay has the same protocol as PubChem AID 992, this is a separate project and, therefore, is published as a separate assay
NCGC Assay Protocol Summary:
This is a fluorogenic enzyme assay with 4-Methylumbelliferyl alpha-D-galactopyranoside as the substrate and human […] as the enzyme preparation. Upon the hydrolysis of this fluorogenic substrate, the resulting product, […]. 4-Methyllumbelliferone, can be excited at 365 nm and emits at 440 nm. This fluorescence which can be detected by a standard fluorescence plate reader. Data were normalized to the controls for basal activity (without enzyme) and 100% activity (with enzyme). In the AC50 values were determined from concentration-response data modeled with the standard Hill equation.
Assay buffer: 50 mM citric acid (titrated with potassium phosphate to pH 4.5), 0.005% Tween-20, pH 4.5. (pH 4.5 is an optimal condition for this enzyme assay)
1536-well assay protocol for the human alpha-galactosidase:
(1) Add 2 ul/well of enzyme (12 nM final)
(2) Add 23 nL compounds in DMSO solution. The final titration was 0.7 nM to 77 uM.
(3) Add 1 ul of substrate (400 uM final)
(4) Incubate at room temperature for 20 min.
(5) Add 2 ul stop solution (1M NaOH and 1M Glycine mixture, pH 10)
(6) Detect the assay plate in a ViewLux plate reader (PerkinElmer) with Ex=365 nm and Em=440nm.
Keywords: MLSMR, MLPCN, NIH Roadmap, qHTS, NCGC, : Alpha-galactosidase, Fabry Disease, pharmacological chaperone, chaperone therapy
On the technique in general: qHTS replaces the single test concentration by a dilution series.
As to `O=[N+]([O-])c1cc([N+](=O)[O-])c(NCC2CCS(=O)(=O)C2)c([N+](=O)[O-])c1` (centres undefined), the activity change, negative = inhibition is inactive: -20.5%.

In the case of `CN1CCN(CCOC(=O)C(O)(c2ccccc2)c2ccccc2)CC1`, the activity change, negative = inhibition is inactive: 1.28%. Regarding `COc1ccc(NC2CCN(C(=O)OC(C)(C)C)CC2)cc1`, the activity change, negative = inhibition was inactive: 2.02%. Next, `O=C(NCC1(N2CCOCC2)CCCCC1)c1cc(=O)[nH]c2ccccc12`: inactive: 0.484%; `O=C(NCC1(N2CCCCC2)CCCCC1)c1cccc([N+](=O)[O-])c1`: inactive: 2.51%; `N#CC1(Nc2ccccc2)CCN(CCc2ccccc2)CC1`: inactive: -0.814%. The figure for `COc1ccc2c(c1O)-c1c(O)c(OC)cc3c1[C@H](C2)[N+](C)(C)CC3.O=[N+]([O-])c1cc([N+](=O)[O-])c([O-])c([N+](=O)[O-])c1[O-]` is inactive: -1.74%; for `O=C(OC1CN2CCC1CC2)c1ccc([N+](=O)[O-])cc1` (centres undefined) it is inactive: 0.548%; for `CN(C)c1cccc(C(=O)NCC2(N3CCCCC3)CCCCC2)c1` it is inactive: 2.24%. Next, `COc1ccc(CN(CCCl)CCCl)cc1Cl`: inactive: 2.85%; `CC(C)c1ccc(NC2CCN(C(=O)OC(C)(C)C)CC2)cc1`: inactive: -12.8%. As to `O=C(NCC1(N2CCOCC2)CCCCC1)c1cc2ccccc2o1`, the activity change, negative = inhibition is inactive: -13.7%.

`CCOC(=O)N1CCC(Nc2ccc(OC)cc2)CC1`: the activity change, negative = inhibition was inactive: -3.69%. The figure for `N#CC1(Nc2ccccc2)CCN(Cc2ccccc2)CC1` is inactive: -12.6%; for `O=C(OC1CN2CCC1CC2)C1c2ccccc2Oc2ccccc21` (centres undefined) it is inactive: -24.2%; for `COc1ccc(C(=O)NCC2(N3CCCCC3)CCCCC2)c(OC)c1OC` it is inactive: -3.12%. The figure for `Cc1ccc(OCC(C)C)c(CN(CCCl)CCCl)c1` is inactive: -4.5%.

On to `CCOc1ccc(C)cc1CN(CCCl)CCCl`, for which the activity change, negative = inhibition is inactive: -6.2%. Next, `COc1ccc(NC2CCN(CCc3ccccc3)CC2)c(OC)c1`: inactive: -3.17%; `CCN1CCC(Nc2cccc(F)c2)CC1`: inactive: -2.46%; `CN(C)c1ccc(C(=O)NCC2(N3CCCCC3)CCCCC2)cc1`: inactive: -1.51%. Turning to `Fc1ccccc1NC1CCN(Cc2ccccc2)CC1`, the activity change, negative = inhibition was inactive: -3.12%. Next, `CCC(CO)(C(=O)OC1CN2CCC1CC2)c1ccccc1` (centres undefined): inactive: 7.2%; `COc1cc(OC)cc(C(=O)NCC2(N3CCOCC3)CCCCC2)c1`: inactive: 7.16%. Next, `CCCOc1ccc(C)cc1CN(CCCl)CCCl`: inactive: -0.534%. Next, `CCOc1ncccc1C(=O)NCC1(N2CCOCC2)CCCCC1`: inactive: 1.93%; `CC(C)(C)OC(=O)N1CCC(Nc2ccccc2)CC1`: inactive: -13%; `N/C(=N\O)c1c(N)no[n+]1[O-]`: inactive: 4.58%. For the compound `O=C(O)c1cccc(Nc2c([N+](=O)[O-])cc([N+](=O)[O-])cc2[N+](=O)[O-])c1`, the activity change, negative = inhibition was inactive: 0.931%. For `O=C(OC1CN2CCC1CC2)C1c2ccccc2C=Cc2ccccc21` (centres undefined), the activity change, negative = inhibition is inactive: -11.8%. For `COc1ccc(C(=O)NCC2(N3CCOCC3)CCCCC2)cc1OC`, the activity change, negative = inhibition was inactive: -6.27%. Next, `c1ccc(CN2CCC(Nc3ccccc3)CC2)cc1`: inactive: 0.129%; `N#Cc1ccc(C(=O)NCC2(N3CCCCC3)CCCCC2)cc1`: inactive: -2.33%; `CCOC(=O)C(CC)C1=NC(C)(C)Cc2ccccc21.O=[N+]([O-])c1cc([N+](=O)[O-])c(O)c([N+](=O)[O-])c1` (centres undefined): inactive: -15.4%.

The record behind these values is PubChem BioAssay AID1467 (National Center for Advancing Translational Sciences (NCATS), 2008).
